This note sets out measurements from ChEMBL document CHEMBL1143050, “QSAR study on permeability of hydrophobic compounds with artificial membranes” (Bioorg Med Chem, 2007).

A short description of data set [1]: in vitro.
For data set [2] the following is noted: octanol/water.

Broadly, the Papp is the rate of passage across a membrane or cell layer, normalised by area and donor concentration. A higher Papp goes with ready permeation. Consider `Oc1ccccc1` [PHENOL], for which the Papp in data set [1] came to 147 ×10⁻⁶ cm/s. Usually LogP stands for the decadic logarithm of the partition coefficient of the neutral form, usually between octanol and water. Read a low LogP as lower lipophilicity. Regarding `CC(CCc1ccccc1)NCC(O)c1ccc(O)c(C(N)=O)c1` (configuration not stated) [LABETALOL], the LogP in data set [2] amounted to 3.09.
